Laboratory results reported in ChEMBL document CHEMBL5500382, “Discovery of potent small molecule ubiquitin-specific protease 10 inhibitors with anti-hepatocellular carcinoma activity through regulating YAP expression” (Eur J Med Chem, 2024).

By UniProt entry, the sequences of proteins in these tests, tags left out.
UniProt Q14694, whole entry: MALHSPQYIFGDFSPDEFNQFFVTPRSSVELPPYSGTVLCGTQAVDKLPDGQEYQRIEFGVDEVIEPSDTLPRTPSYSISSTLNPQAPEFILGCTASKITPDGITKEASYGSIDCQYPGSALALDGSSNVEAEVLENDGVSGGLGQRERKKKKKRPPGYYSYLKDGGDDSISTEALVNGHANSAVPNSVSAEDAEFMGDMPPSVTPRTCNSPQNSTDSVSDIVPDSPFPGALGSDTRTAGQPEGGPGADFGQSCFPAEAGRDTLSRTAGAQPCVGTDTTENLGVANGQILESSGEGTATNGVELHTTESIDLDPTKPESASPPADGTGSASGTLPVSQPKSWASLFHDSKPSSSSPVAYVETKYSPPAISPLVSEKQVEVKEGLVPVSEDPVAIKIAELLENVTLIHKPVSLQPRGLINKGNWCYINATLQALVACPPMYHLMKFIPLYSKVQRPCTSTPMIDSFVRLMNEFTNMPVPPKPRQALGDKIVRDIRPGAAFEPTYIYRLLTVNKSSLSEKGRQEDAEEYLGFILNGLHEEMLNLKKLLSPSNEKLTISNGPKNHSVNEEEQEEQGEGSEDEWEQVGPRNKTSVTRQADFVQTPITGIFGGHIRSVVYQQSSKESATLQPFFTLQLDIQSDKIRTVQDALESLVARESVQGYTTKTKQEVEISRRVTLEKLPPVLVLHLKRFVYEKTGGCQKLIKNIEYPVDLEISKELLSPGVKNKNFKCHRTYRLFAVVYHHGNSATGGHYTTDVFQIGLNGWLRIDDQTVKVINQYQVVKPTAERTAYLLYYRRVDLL

How the values were obtained:
Homo sapiens = species on record: Homo sapiens; test: Inhibition of TEAD/YAP (unknown origin) at 20 uM measured after 24 hrs by luminescence based renilla luciferase reporter assay relative to control
[1] = target: T1, Ubiquitin carboxyl-terminal hydrolase 10 (Homo sapiens, UniProt Q14694); test: Inhibition of human USP10 deubiquitinase activity using Ubiquitin 7-amino-4-carbamoylmethylcoumarin as substrate at 20 uM preincubated for 30 mins followed by substrate addition and measured after 30 mins by fluorometric assay relative to control; details: time 60.0 min
[2] = target: T1, Ubiquitin carboxyl-terminal hydrolase 10; test: Inhibition of USP10 in human Bel-7402 cells assessed as induction of YAP degradation by Western blot analysis; assay type: cell-based; details: dose 2.5-20 µM
[3] = target: T1, Ubiquitin carboxyl-terminal hydrolase 10; test: Inhibition of human USP10 deubiquitinase activity using Ubiquitin 7-amino-4-carbamoylmethylcoumarin as substrate at 10 uM preincubated for 30 mins followed by substrate addition and measured after 30 mins by fluorometric assay; details: time 60.0 min

| SMILES | inhibition (Homo sapiens) | inhibition [1] | inhibition [2] | inhibition [3] |
| --- | --- | --- | --- | --- |
| Cc1ccc2c(=O)c(C(=O)c3cccc(Cl)c3)cn(CC(=O)Nc3ccccc3F)c2n1 | inactive | inactive |  |  |
| Cc1ccc2c(=O)c(-c3nc(-c4ccc(Cl)cc4)no3)cn(Cc3cccc(F)c3)c2n1 | 41.3% | 48.5% |  |  |
| Cc1ccc2c(=O)c(-c3nc(-c4ccccc4C)no3)cn(CC(=O)NC3CCCCC3)c2n1 | 26.9% | 20.8% |  |  |
| Cc1ccc2c(=O)c(-c3nc(-c4ccccc4C)no3)cn(CC(=O)NCc3ccc(F)cc3)c2n1 | 32.1% | 45.8% |  |  |
| Cc1ccc2c(=O)c(-c3nc(-c4ccccc4C)no3)cn(CC(=O)N3CCc4ccccc43)c2n1 | inactive | 28.1% |  |  |
| Cc1ccc2c(=O)c(-c3nc(-c4cccc(F)c4)no3)cn(CC(=O)NCc3ccco3)c2n1 | inactive | 40.5% |  |  |
| Cc1ccc2c(=O)c(-c3nc(-c4ccccc4C)no3)cn(CC(=O)Nc3c(F)cccc3F)c2n1 | 80.9% | 63.8% | Dose-Dependent Effect |  |
| Cc1ccccc1-c1noc(-c2sc3ncn(CC(=O)Nc4ccccc4Cl)c(=O)c3c2C)n1 | inactive | 35.2% |  |  |
| COc1ccc(-c2noc(-c3cn(CC(=O)Nc4ccc(F)cc4F)c4nc(C)ccc4c3=O)n2)cc1 | 52.4% | 89.5% |  |  |
| Cc1ccc2c(=O)c(-c3nc(-c4ccccc4C)no3)cn(CC(=O)NCCc3ccc(Cl)cc3)c2n1 | 69.5% | 83.4% |  |  |
| CC(=O)c1cccc(NC(=O)Cn2ccn3nc(-c4ccc(C)cc4)cc3c2=O)c1 | inactive | 33.5% |  |  |
| CC(=O)c1cccc(NC(=O)Cn2nc3c4cc(-c5ccc(C)c(C)c5)nn4ccn3c2=O)c1 | inactive | 42.6% |  |  |
| Cc1ccc2c(=O)c(C(=O)Nc3ccccc3C)cn(CC(=O)NCCc3ccc(Cl)cc3)c2n1 |  |  |  | Active |
| Cc1ccc2c(=O)c(S(=O)(=O)c3cccc(F)c3)cn(CC(=O)Nc3ccccc3F)c2n1 | inactive | inactive |  |  |
| CCn1nc(C)c2nc(SCC(=O)Nc3cccc(C(C)=O)c3)n(Cc3ccc(C)cc3)c(=O)c21 | inactive | 31.8% |  |  |
| COc1ccc(NC(=O)Cn2cc(-c3nc(-c4ccccc4C)no3)c(=O)c3ccc(C)nc32)cc1Cl | inactive | 2.4% |  |  |
| CCn1nc(C)c2c1c(=O)n(Cc1ccccc1)c(=O)n2CC(=O)Nc1cccc(C(C)=O)c1 | inactive | 10.1% |  |  |
| CC(=O)c1cccc(NC(=O)Cn2cc(-c3nc(-c4cccc(C)c4)no3)c(=O)c3ccc(C)nc32)c1 | 40.3% | 54.6% |  |  |
| COC(=O)c1ccccc1NC(=O)Cn1cc(-c2nc(-c3cccc(F)c3)no2)c(=O)c2ccc(C)nc21 | inactive | inactive |  |  |

Calls of active or inactive are those of the source. The calls are words filed in the database; no cut-off is given here.
